Results reported in US20230226074A1, “METHODS OF USE FOR PYRIMIDINES AS FERROPORTIN INHIBITORS” (Global Blood Therapeutics, Inc., priority 2020, published 2023).

Amino acid sequences for entries named in this document (tags omitted).
UniProt Q9NP59, whole entry: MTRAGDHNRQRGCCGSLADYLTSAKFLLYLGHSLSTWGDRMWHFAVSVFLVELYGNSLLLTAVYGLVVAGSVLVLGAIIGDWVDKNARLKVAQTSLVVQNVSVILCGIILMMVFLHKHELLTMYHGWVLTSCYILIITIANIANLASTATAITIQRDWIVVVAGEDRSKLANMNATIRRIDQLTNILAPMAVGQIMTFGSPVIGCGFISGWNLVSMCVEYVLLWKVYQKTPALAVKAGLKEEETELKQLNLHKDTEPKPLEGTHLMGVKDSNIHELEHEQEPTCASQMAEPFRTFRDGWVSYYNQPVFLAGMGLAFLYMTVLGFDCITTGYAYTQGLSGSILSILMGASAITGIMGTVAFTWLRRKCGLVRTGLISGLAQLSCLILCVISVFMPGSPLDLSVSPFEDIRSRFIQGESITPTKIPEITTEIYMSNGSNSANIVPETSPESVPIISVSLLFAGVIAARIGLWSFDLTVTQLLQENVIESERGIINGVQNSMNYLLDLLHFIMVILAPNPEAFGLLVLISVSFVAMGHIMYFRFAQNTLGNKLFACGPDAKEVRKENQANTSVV

Target: human ferroportin (Homo sapiens, UniProt Q9NP59)
Assay: In-vitro ferroportin internalization assay (luciferase reporter)
Type: cell-based
Conditions: average pEC50; stably-transfected CHO cell line expressing human ferroportin tagged to a luciferase reporter; 6 h incubation with test compound
Method: The protocol for this assay is generally as described in WO2018/128828, incorporated herein by reference in its entirety. Functional internalization of ferroportin protein was measured using a stably-transfected CHO cell line expressing the human ferroportin tagged to a luciferase reporter. Cells were plated for 24 h in the presence of ferric ammonium citrate (FAC). Ferroportin protein expression was induced with doxycycline for 24 h. The next day, the compounds were added. Test compounds were dissolved in DMSO. Cells were incubated with the test compounds for 6 h, and subsequently luciferase activity was measured using the Nano-Glo Luciferase Assay System and Glomax (Promega, Madison, Wis.). The average pEC50 was determined for the test compounds.

pEC50: 7.9
Structure (SMILES): COc1ccc(NC(=O)CN(C)c2nc(-c3cc(OC(F)(F)F)ccn3)nc3c2CCC3)cn1
